Test results published in patent US20060135458A1, “Antiviral oligonucleotides” (priority 2002, published 2006).

System: Hep2 cells

NC(=O)c1ncn([C@@H]2O[C@H](CO)[C@@H](O)[C@H]2O)n1 [Ribavirin]
toxicity in Hep2 cells: significantly toxic | therapeutic index (human, 7 days): 2.08
